Source: patent US12441689B2 (EpiVario, Inc., priority 2019, dated 2025)

Amino acid sequences for entries named in this document (tags omitted).
UniProt Q9NR19, whole entry: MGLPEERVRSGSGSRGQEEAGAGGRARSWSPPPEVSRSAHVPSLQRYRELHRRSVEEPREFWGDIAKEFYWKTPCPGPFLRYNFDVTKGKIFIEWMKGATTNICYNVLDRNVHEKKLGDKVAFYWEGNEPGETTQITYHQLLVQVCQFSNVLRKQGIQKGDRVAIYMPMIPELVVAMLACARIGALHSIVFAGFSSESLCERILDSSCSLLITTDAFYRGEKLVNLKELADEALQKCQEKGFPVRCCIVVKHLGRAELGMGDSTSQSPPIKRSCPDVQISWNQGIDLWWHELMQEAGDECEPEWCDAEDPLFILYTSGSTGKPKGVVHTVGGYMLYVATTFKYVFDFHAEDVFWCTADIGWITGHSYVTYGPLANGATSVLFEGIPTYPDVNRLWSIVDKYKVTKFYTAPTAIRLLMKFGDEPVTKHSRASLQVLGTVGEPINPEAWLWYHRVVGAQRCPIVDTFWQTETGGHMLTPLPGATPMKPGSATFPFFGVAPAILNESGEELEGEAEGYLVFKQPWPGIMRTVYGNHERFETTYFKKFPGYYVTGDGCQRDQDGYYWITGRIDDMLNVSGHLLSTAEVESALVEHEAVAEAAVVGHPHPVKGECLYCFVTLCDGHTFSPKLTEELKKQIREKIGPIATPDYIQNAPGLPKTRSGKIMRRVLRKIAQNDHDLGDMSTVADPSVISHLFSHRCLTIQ

Molecular target: human ACSS2 protein (Homo sapiens (Human), UniProt Q9NR19)
Test: ACSS2 Cell-Free Activity Assay (Cell-Free IC50)
Conditions: read-out: ACSS2 Biochemical IC50; 10 nM human ACSS2 protein, 90 minutes at 37 C, pyrophosphatase-coupled, Biomol Green absorbance at 620 nm

For `CCC(F)(F)c1cccc(NC(=O)c2oc(-c3ccc(OC(F)F)c(-c4ccccc4)c3)nc2C)c1`, the IC50 was > 100 nM.
